Chains of the proteins cited; added tags and fusions are not shown.
UniProt P20272, whole entry: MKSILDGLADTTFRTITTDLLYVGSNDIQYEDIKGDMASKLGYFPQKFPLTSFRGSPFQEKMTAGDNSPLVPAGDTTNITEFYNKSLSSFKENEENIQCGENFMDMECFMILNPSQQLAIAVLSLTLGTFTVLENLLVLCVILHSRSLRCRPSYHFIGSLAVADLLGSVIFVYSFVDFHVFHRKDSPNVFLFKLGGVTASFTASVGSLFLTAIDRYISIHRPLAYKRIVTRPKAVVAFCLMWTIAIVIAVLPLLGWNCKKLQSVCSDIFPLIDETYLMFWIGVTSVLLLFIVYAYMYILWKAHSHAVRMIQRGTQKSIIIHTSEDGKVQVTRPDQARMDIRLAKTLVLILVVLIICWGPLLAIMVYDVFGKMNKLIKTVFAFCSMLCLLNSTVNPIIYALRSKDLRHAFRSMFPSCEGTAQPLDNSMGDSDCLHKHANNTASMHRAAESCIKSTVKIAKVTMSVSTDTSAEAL

In ChEMBL document CHEMBL1146652, “Synthesis and CB1 receptor activities of novel arachidonyl alcohol derivatives” (Bioorg Med Chem Lett, 2004):

Biological target: Cannabinoid receptor 1 (Rattus norvegicus, UniProt P20272)
Test: Cannabinoid receptor 1 dependent activity of compound was evaluated by using [35S]GTP-gamma-S-binding studies
Type: functional

CCCCC/C=C\C/C=C\C/C=C\C/C=C\CCCC(=O)NCCO [ANANDAMIDE]
EC50: 15.8 µM
